Read-outs that look alike come from different tables or passages of the source.
Assays:
Pax6 (isoforms 5a and 6) = test: Pax6 expression by western blot in human corneal epithelial cells; assay type: cell-based; conditions: 60 μM
Method: Serum starvation media was aspirated and cells were treated with corresponding Li2-ADPR treatment at 60 μM in serum starvation media. […] Supernatants were collected and total protein concentration for each sample was measured using spectrophotometric methods.
Western Blot: Samples were prepared in 2× Laemmli sample buffer and boiled at 95° C. for 5 minutes. […] Proteins are electrophoresed at 125V for approximately 50 minutes then transferred to nitrocellulose.

Chains of the proteins cited; added tags and fusions are not shown.
UniProt Q8N6T7, whole entry: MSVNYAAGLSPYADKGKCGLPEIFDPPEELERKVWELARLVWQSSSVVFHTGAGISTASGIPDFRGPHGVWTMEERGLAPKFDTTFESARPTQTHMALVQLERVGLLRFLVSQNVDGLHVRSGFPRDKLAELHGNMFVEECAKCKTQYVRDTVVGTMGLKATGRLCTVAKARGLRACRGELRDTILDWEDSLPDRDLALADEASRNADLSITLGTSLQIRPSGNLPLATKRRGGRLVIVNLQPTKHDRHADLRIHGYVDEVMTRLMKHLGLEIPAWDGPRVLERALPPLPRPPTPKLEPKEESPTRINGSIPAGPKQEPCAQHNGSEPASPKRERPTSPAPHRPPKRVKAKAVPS

[1] = biological target: purified recombinant GST-SIRT6 protein (Homo sapiens, UniProt Q8N6T7); conditions: 0.1 and 1 μM, repeat study
Method: This first set of studies was performed using a Western blot method (Rahnasto-Rilla, 2016, Methods Mol. Biol., 1436:259-269) for the in vitro evaluation of Sirt6 deacetylation activity. […] Acetylation level was detected with anti-H3K9Ac antibody and normalized to total H3 histone (FIG. 5 (b)).

cytokeratin 12 = conditions: 60 μM
Sirt6 = conditions: 60 μM, 60 minutes
p53 = conditions: 60 μM

Nc1ncnc2c1ncn2[C@@H]1O[C@H](COP(=O)([O-])OP(=O)([O-])OC[C@H]2OC(O)[C@H](O)[C@@H]2O)[C@@H](O)[C@H]1O.[Li+].[Li+] (stereo partly drawn) [Li2-ADPR, dilithium ADPR]
Pax6 isoform 5a protein concentration relative to baseline (Pax6 (isoforms 5a and 6); 30 minutes): 188%
Pax6 isoform 6 protein concentration relative to baseline (Pax6 (isoforms 5a and 6); 30 minutes): 179%
Pax6 isoform 5a protein concentration relative to baseline (Pax6 (isoforms 5a and 6); 60 minutes): 584%
Pax6 isoform 6 protein concentration relative to baseline (Pax6 (isoforms 5a and 6); 60 minutes): 302%
Pax6 isoform 5a protein concentration relative to baseline (Pax6 (isoforms 5a and 6); two hours): 206%
Pax6 isoform 6 protein concentration relative to baseline (Pax6 (isoforms 5a and 6); two hours): 197%
ratio of H3K9Ac to total H3 (H3K9Ac/H3) [1]: significantly reduced
cytokeratin 12 dimer form relative to baseline (cytokeratin 12; 30 minutes): 139%
cytokeratin 12 monomer form relative to baseline (cytokeratin 12; 30 minutes): 269%
cytokeratin 12 dimer form relative to baseline (cytokeratin 12; 60 minutes): 219%
cytokeratin 12 monomer form relative to baseline (cytokeratin 12; 60 minutes): 789%
cytokeratin 12 dimer form relative to baseline (cytokeratin 12; 120 minutes): 201%
cytokeratin 12 monomer form relative to baseline (cytokeratin 12; 120 minutes): 505%
Sirt6 protein concentration relative to baseline (No Treat lane) (Sirt6): 135%
p53 protein concentration relative to baseline (No Treat lane) (p53; 15 minutes): 313%
p53 protein concentration relative to baseline (No Treat lane) (p53; 30 minutes): 535%
p53 protein concentration relative to baseline (No Treat lane) (p53; 60 minutes): 407%
p53 protein concentration relative to baseline (No Treat lane) (p53; 120 minutes): 510%

Source: patent US12233083B2, “Methods for the use of 5′-adenosine diphosphate ribose (ADPR)” (Invirsa, Inc., priority 2018, dated 2025)
